Experimental data as given in ChEMBL document CHEMBL5537216, “Design, synthesis, molecular docking and anti-proliferative activity of novel phenothiazine containing imidazo[1,2-a]pyridine derivatives against MARK4 protein” (RSC Med Chem, 2024).

Target: T1, MAP/microtubule affinity-regulating kinase 4 (Homo sapiens) (UniProt Q96L34)
T1 sequence (whole entry): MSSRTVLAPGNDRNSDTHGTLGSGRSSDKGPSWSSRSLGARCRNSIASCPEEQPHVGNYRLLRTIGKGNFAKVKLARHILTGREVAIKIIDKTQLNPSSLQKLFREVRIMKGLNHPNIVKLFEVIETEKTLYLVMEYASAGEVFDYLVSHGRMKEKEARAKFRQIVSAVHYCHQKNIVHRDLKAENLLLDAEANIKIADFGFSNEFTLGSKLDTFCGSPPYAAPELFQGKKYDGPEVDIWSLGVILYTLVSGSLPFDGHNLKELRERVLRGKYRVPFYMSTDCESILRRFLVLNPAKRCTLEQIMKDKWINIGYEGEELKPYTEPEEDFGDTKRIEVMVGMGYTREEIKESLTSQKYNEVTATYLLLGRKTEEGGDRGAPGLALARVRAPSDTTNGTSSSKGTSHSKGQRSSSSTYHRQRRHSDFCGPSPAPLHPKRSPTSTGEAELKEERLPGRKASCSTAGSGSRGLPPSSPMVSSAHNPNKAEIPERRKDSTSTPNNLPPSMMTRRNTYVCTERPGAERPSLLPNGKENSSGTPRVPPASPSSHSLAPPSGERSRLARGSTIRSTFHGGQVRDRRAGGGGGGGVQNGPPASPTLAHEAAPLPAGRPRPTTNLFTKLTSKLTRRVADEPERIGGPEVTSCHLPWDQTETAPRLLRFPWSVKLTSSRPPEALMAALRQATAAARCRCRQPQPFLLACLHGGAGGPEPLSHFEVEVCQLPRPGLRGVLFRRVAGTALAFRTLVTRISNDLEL
Test: Binding affinity to human MARK4 assessed as binding constant by fluorescence spectroscopy analysis

Q: With `CN1c2ccccc2Sc2ccc(C(=O)c3c(-c4ccccc4)nc4ccccn34)cc21` as the compound, how does the K read?
A: 0.79 10^5/M
